Tests used:
IDH2 [1] = target: T1, IDH2 (Homo sapiens, UniProt P48735)
IDH2 [2] = target: T1, IDH2; assay: biochemical

Amino acid sequences for entries named in this document (tags omitted). Residues count along the entry.
UniProt P48735, 40-452: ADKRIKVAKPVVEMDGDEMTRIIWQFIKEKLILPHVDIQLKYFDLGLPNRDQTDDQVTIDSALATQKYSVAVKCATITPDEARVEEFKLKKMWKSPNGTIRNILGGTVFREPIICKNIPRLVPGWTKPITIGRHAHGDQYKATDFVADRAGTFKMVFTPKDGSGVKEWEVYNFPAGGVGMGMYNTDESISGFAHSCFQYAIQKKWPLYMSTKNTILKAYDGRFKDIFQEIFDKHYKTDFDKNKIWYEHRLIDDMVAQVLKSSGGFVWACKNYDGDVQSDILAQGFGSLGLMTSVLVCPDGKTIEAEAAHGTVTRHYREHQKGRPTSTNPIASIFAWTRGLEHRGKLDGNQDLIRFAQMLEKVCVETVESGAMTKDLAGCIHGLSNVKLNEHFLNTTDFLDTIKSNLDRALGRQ

With `CC(C)(O)CNc1nc(Nc2ccnc(C(F)(F)F)c2)nc(-c2cccc(C(F)(F)F)n2)n1` [Enasidenib, 2-Methyl-1-(4-(6-(trifluoromethyl)pyridin-2-yl)-6-(2-(trifluoromethyl)pyridin-4-ylamino)-1,3,5-triazin-2-ylamino)propan-2-ol] the “CETSA target engagement, IDH2” value (IDH2 [1]) was “binding to IDH2” and the Kd (IDH2 [2]) was 610 nM.

Source: publication PMC8566969, “Comparison of viral RNA–host protein interactomes across pathogenic RNA viruses informs rapid antiviral drug discovery for SARS-CoV-2” (Cell Research, 2021)
